Test [1] deals with T1, Dihydrofolate reductase (Gallus gallus, UniProt P00378).
T1 sequence (P00378 whole entry): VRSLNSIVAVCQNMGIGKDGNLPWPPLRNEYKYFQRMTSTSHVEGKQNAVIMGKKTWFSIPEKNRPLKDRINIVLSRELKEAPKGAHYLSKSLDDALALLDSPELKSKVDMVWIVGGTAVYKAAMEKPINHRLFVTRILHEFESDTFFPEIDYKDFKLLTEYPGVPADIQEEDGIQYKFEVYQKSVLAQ
In words: Inhibitory activity against chicken dihydrofolate reductase at pH 7.2.

Test [2] has as its target T1, Dihydrofolate reductase. In words: Inhibitory activity against chicken Dihydrofolate reductase at pH 7.2.

In BindingDB's records for doi:10.1021/jm00346a020 (1982) one finds Ki data, which are given here for 18 compounds.

Molecules are shown by their SMILES.

Usually Ki stands for the equilibrium dissociation constant of an inhibitor or competing ligand from its target. A low value points to a stronger hold on the target.

Turning to `Nc1ncc(Cc2cccc(C(F)(F)F)c2)c(N)n1`, the Ki at Dihydrofolate reductase [1] turned out to be 12 µM. Same read-out and setting: the value for `Nc1ccc(Cc2cnc(N)nc2N)cc1` was 186 µM.

For the compound `CCCCOc1ccc(Cc2cnc(N)nc2N)cc1`, affinity on Dihydrofolate reductase [1] was put at a Ki of 21.4 µM. The compound `Nc1ncc(Cc2cc(CO)cc(CO)c2)c(N)n1` came in with a Ki at Dihydrofolate reductase [1] of 589 µM. Same read-out and setting: the value for `Cc1ccc(Cc2cnc(N)nc2N)cc1` was 27.5 µM; that for `Nc1ncc(Cc2ccc(Br)cc2)c(N)n1` was 16.2 µM; that for `CC(=O)Nc1ccc(Cc2cnc(N)nc2N)cc1[N+](=O)[O-]` was 45.7 µM. `COCCOc1ccc(Cc2cnc(N)nc2N)cc1OCCOC` registered a Ki on Dihydrofolate reductase [2] of 123 µM. The compound `Nc1ncc(Cc2ccc(Cl)cc2)c(N)n1` came in with a Ki at Dihydrofolate reductase [1] of 14.8 µM. The same measure, in the same setting: the same measure for `COCc1cccc(Cc2cnc(N)nc2N)c1`: 42.7 µM.

With `CCCCCCOc1ccc(Cc2cnc(N)nc2N)cc1`, the Ki on Dihydrofolate reductase [2] stood at 19.5 µM. As for `Nc1ncc(Cc2cccc(CO)c2)c(N)n1`, on Dihydrofolate reductase [1], the Ki was 49 µM. In the case of `Nc1ncc(Cc2ccc(O)c(O)c2)c(N)n1`, affinity on Dihydrofolate reductase [1] was put at a Ki of 257 µM. The same measure, in the same setting: the value for `Nc1ncc(Cc2cccc(O)c2)c(N)n1` [3-(2,4-Diamino-pyrimidin-5-ylmethyl)-phenol] was 135 µM. At Dihydrofolate reductase [2], `COCCOc1ccc(Cc2cnc(N)nc2N)cc1` registered an inhibitory constant (Ki) of 55 µM. `Nc1ncc(Cc2cccc(Br)c2)c(N)n1`: affinity on Dihydrofolate reductase [1] was put at a Ki of 9.33 µM.

As for `CS(=O)(=O)Oc1cccc(Cc2cnc(N)nc2N)c1`, the Ki on Dihydrofolate reductase [1] worked out at 46.8 µM. In turn, `NC(=O)COc1cccc(Cc2cnc(N)nc2N)c1` gave a Ki at Dihydrofolate reductase [2] of 53.7 µM.
